Laboratory results taken from ChEMBL document CHEMBL1139504, “Discovery of the first potent, selective 5-hydroxytryptamine1D receptor antagonist” (J Med Chem, 2005).

By UniProt entry, the sequences of proteins in these tests, tags left out.
UniProt P08908, whole entry: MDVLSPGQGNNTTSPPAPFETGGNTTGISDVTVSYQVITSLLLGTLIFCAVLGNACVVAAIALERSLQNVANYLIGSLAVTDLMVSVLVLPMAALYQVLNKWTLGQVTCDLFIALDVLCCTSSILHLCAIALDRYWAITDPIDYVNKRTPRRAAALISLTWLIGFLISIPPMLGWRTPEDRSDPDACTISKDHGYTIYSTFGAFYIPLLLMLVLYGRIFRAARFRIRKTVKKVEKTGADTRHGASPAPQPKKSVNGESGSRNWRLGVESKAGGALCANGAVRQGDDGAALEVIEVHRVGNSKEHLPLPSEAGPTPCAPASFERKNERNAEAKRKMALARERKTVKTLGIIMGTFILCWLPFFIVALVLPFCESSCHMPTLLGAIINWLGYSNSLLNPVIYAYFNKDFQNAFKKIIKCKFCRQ
UniProt P28222, whole entry: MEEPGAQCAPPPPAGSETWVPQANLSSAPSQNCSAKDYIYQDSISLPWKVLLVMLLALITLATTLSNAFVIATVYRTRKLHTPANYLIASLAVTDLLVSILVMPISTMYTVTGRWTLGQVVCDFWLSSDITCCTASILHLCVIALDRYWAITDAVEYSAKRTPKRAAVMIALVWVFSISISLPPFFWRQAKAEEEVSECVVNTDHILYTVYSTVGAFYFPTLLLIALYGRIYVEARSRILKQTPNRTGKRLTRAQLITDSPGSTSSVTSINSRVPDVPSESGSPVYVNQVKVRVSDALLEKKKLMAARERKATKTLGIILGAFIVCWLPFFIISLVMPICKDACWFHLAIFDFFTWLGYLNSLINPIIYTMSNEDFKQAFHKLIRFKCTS

Legend:
[1] = target: 5-hydroxytryptamine receptor 1A (Homo sapiens, UniProt P08908); assay: Displacement of [3H]WAY-100635 from human 5-hydroxytryptamine 1A receptor expressed in CHO cells; assay type: cell-based
Procedure, shortened: (§1)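 Radioligand displacement binding on membranes of cloned human receptors. Each determination lies within 0.3 log units of the mean.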

[2] = target: 5-hydroxytryptamine receptor 1B (Homo sapiens, UniProt P28222); assay: Displacement of [3H]5-HT from human 5-hydroxytryptamine 1B receptor expressed in CHO cells; assay type: cell-based; procedure, shortened: as §1

Cc1ccc2c(OCCN3CCC(Cc4ccc5c(c4)NC(=O)CO5)CC3)cccc2n1
Ki [1]: 2.51 nM | Ki [2]: 10 nM
